Patent US7105575B2, “Methods for the treatment of neuro- disorders using aminothiol compounds” (Medimmune Oncology Inc., priority 1997, dated 2006)

Columns and labels:
[1] = tested on: cells; settings: compounds incubated with cells one hour after cisplatin exposure; cited from earlier work
[2] = tested on: V79-B310H Chinese hamster cells; settings: cited from earlier work
[3] = tested on: DNA of salmon sperm; settings: compounds present concomitantly with cisplatin, in vitro; cited from earlier work
[4] = tested on: severe neurotoxicities of right arm, leg pain; experiment: Example 2 case study: amifostine for chemotherapy-induced neurotoxicities (carboplatinum, vinblastine, methotrexate); format: in vivo, human
Excerpt: The patient who is a survivor of the concentration camps of World War II, was diagnosed with bladder cancer that had metastized to the lungs. They received 3 cycles carboplatinum, vinblastine and methotrexate. While in the concentration camp, the patient suffered damage to their lower legs which caused them constant pain.

[5] = tested on: cisplatin neuropathy; settings: cited from earlier work
[6] = tested on: neurotoxicities / neuropathy
[7] = tested on: cisplatin-induced renal failure; experiment: Example 1 case study: amifostine given after cisplatin-induced renal failure; settings: for overall clinical status (in words) / renal function (in words): amifostine 400 mg iv for 3 days; for renal function (in words): started after renal failure had developed
[8] = tested on: neurotoxicities; experiment: Example 4 case study: amifostine in MDS patient with neurotoxicities from CHOP chemotherapy; format: in vivo, human
[9] = tested on: cisplatin nephrotoxicity; settings: amifostine given 30 minutes after cisplatin; cited from earlier work
[10] = tested on: paclitaxel neuropathies and arthralgias/myalgias; settings: pretreatment with amifostine, escalating doses of paclitaxel; cited from earlier work
[11] = cited from earlier work
[12] = 500 mg amifostine over 10 minutes
[13] = paclitaxel 135 mg/m^2 iv day 1, cisplatin 100 mg/m^2 intraperitoneally day 2, before amifostine

Structure (SMILES): NCCCNCCS [WR-1065, S-2-(3-aminopropylamino) ethanethiol]
- protection from cytostatic effect of cisplatin [1]: neither WR-1065 nor WR-2721 (amifostine) could protect cells
- protection against cis-DDP cytotoxicity ([2]; administered before, during and immediately after cisplatin treatment): protects against cytotoxicity
- protection during versus immediately following cisplatin exposure [2]: little if any difference in the magnitude of protection
- timing of maximum protection ([2]; presence in cell growth medium relative to cisplatin exposure): maximum protection was obtained when WR-1065 was present in the cell growth medium for 30 minutes prior to exposure
- platination of salmon sperm DNA, co-incubation [3]: caused a decrease in the platination

Structure (SMILES): NCCCNCCSSCCNCCCN [WR-33278]
- platination of salmon sperm DNA, co-incubation [3]: caused a decrease in the platination

Structure (SMILES): NCCCNCCSP(=O)(O)O [amifostine, S-2-(3-aminopropylamino)ethyl dihydrogen phosphorothioate]
- protection from cytostatic effect of cisplatin [1]: neither WR-1065 nor WR-2721 (amifostine) could protect cells
- leg pain two days after infusion [4, 12]: the pain in their legs was getting better
- walking ability two days after infusion [4, 12]: able to walk without their cane
- pain reported two days after infusion ([4]; person, 500 mg amifostine in 50 cc saline over 10 minutes): no pain for the first time in months
- arm pain after subsequent infusions ([4]; subsequent Ethyol infusions): remained without arm pain
- leg pain after subsequent infusions ([4]; subsequent Ethyol infusions): The pain in their legs has improved
- analgesic need (Duragesic patches) ([4]; subsequent Ethyol infusions, before: 2 patches of 100 mcg/hr): managing with only one Duragesic Patch
- incidence of cisplatin neuropathies ([5]; pretreatment with amifostine, prospective evaluation (Mollman 1988)): significantly lower incidence of cisplatin neuropathies
- occurrence and severity of cisplatin neuropathy ([5]; pretreatment, randomized trial cisplatin and cyclophosphamide±amifostine, advanced ovarian cancer (Kemp 1996)): significantly reduce the occurrence and severity of cisplatin neuropathy
- neuropathy one month after termination ([6]; after four amifostine treatments): neuropathy remained stable
- tolerability of first infusion ([6]; person, amifostine 970 mg in 50 cc saline over 10 minutes, premedicated with Zofran and Decadron): tolerated this treatment without problems
- serum creatinine level following treatment with amifostine (FIG. 1) ([7]; FIG. 1, start about 1.0, maximum about 5.5 mg/dL after cisplatin): about 2.8 mg/dL
- creatinine at further amifostine dose after follow-up clinic visit ([7]; about 8 days after second discharge, when amifostine 400 mg iv was given again): 2.5 mg/dL
- serum creatinine by hospital day 12 / discharge day 13 ([7]; after 3 days of amifostine 400 mg iv, peak 6.0 mg/dL before amifostine): 2.8 mg/dL
- serum creatinine approximately 6 months later ([7]; after final 2-week course of amifostine 400 mg, 5 doses): 2.0 mg/dL
- overall clinical status (in words) [7]: improvement in their overall clinical status
- renal function (in words) [7]: partial recovery of their renal function
- renal function (in words) ([7]; listed as Amifostine): partially reversed the toxic renal effects of cisplatin
- overall clinical status (in words) ([7]; listed as Amifostine): overall clinical status improved
- tolerability ([7]; amifostine 400 mg per day iv on post-cisplatin days 7, 8, 9): tolerated therapy well, with only mild nausea
- serum creatinine on day 3 of amifostine therapy ([7]; patient, amifostine 400 mg per day iv on post-cisplatin days 7, 8, 9, peak 6.0 mg/dL before amifostine): 4.6 mg/dL
- renal function during readmission (in words) ([7]; readmission, 5 days, amifostine 400 mg iv on hospital day 2): renal function stabilized
- tolerability ([7]; readmission, amifostine 400 mg iv once on hospital day 2, ondansetron 24 mg as needed): tolerated the treatment well
- general status on continued treatment ([8]; continues on Ethyol for MDS): doing well
- neurotoxicities, patient statement after five weeks ([8]; person, Ethyol 840 mg Monday, Wednesday, Friday each week, neurotoxicities for eight years after CHOP): neurotoxicities were better since receiving amifostine
- protection from nephrotoxicity [9]: did not protect mice at all from nephrotoxicity
- platination of salmon sperm DNA, co-incubation [3]: caused a decrease in the platination
- tolerated paclitaxel dose [10]: allowed both higher single doses and cumulative doses of paclitaxel to be administered without the occurrence of dose limiting neuropathies and arthralgias/myalgias

Structure (SMILES): N.N.[Cl][Pt][Cl] [cisplatin, cis-diamminedichloroplatinum]
- potential permanent loss of normal renal function ([11]; nephrotoxicity produced by drugs such as cisplatin (Kemp 1996)): ≥ 50%
- patients with myelosuppression ([11]; patients treated with cisplatin): 25–30%
- maximum serum creatinine level after administration of cisplatin (FIG. 1) ([7]; FIG. 1, starting level about 1.0 mg/dL): about 5.5 mg/dL
- BUN by hospital day 5 after chemotherapy [7, 13]: 39 mg/dL
- serum creatinine by hospital day 5 after chemotherapy [7, 13]: 4.9 mg/dL
